Earlier results as cited in patent US12357711B2, “PSMA binding dual mode radiotracer and therapeutic” (Technische Universität München, priority 2019, dated 2025).

Sequences of proteins named here, by UniProt entry; tags and fusion partners are left off. Residues count along the entry.
UniProt P02768, 25-609: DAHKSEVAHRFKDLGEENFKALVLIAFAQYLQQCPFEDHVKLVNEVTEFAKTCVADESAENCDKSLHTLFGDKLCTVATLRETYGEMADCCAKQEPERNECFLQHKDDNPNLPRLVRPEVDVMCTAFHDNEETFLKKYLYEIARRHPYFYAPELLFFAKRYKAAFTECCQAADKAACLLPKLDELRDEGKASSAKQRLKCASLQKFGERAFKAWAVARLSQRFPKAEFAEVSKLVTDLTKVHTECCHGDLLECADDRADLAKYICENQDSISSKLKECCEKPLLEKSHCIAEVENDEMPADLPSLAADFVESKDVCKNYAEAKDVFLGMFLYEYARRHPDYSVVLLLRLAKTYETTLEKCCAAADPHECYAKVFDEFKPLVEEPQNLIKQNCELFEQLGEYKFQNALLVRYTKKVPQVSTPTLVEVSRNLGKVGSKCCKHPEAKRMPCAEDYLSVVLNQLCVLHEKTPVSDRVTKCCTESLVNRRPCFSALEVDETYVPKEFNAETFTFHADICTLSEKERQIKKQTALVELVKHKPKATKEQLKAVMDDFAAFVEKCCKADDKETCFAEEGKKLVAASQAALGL

Target: T1, human serum albumin (Homo sapiens, UniProt P02768)
T1 construct: purchased H13H-2433
Conditions: reference substances for calibration of the HSA-column; cited from earlier work

## NC(=O)N1c2ccccc2C=Cc2ccccc21 [Carbamazepine]
  Lit. HSA % (literature value of human serum albumin binding): 75.00%
